Measured affinities in a library of Ab-14 heavy chain variants

From the AlphaSeq antibody data of Li et al. 2023 (doi:10.1038/s41467-023-39022-2), copy in the FLAb collection.

Binding partner: SARS-CoV-2 spike HR2 peptide, sequence PDVDLGDISGINAS.

The variants keep the light chain, the linker and the frameworks of Ab-14 (scFv order VH, three GGGGS repeats, VL).
VH: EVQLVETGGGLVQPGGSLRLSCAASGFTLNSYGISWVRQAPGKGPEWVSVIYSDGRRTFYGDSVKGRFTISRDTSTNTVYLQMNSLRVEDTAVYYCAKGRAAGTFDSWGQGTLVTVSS
VL: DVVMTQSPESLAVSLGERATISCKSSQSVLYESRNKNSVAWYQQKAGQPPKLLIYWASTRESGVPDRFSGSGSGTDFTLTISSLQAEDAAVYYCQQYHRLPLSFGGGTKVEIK

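Phage display of a naive human antibody library on the peptide gave the parent. These sequences belong to a second round, designed from the earlier measurements on random variants of the parent. Group labels follow the data file (Ctrl: baseline library sampled from a position-specific scoring matrix, with some repeated check sequences; GPLM: also part of the Gaussian process libraries; Gen: genetic algorithm; a sequence that several methods proposed may carry one label only). In AlphaSeq, yeast of one mating type display the scFv and yeast of the other type display the target. Pairs that bind mate more often; barcode pairs of the diploids are counted by sequencing. Each replicate has its own calibration line, from reference interactions of the BCL2 family. There are six technical replicates.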

Each variant is given by its three heavy chain CDRs, as the data file delimits them; those of the parent are GFTLNSYGIS, VIYSDGRRTFYGDSVK, GRAAGTFDS. Scale: log10 of Kd in nM, estimated from mating counts; low values are strong binders. Replicates are averaged; those with no signal do not enter the mean. An entry "nd" has no value in the source: the pair was not observed among the diploids in that replicate. This suggests poor binding but is not conclusive. The authors' rule: three or more of the six replicates give a measured affinity, fewer mean a poor binder.

The variant GFTLNSMGIS / VIYSDGLRTFYGDSVK / GRAGGTFDS [Ctrl] gave nd, nd, nd, nd, nd, 1.21 (controls 0 of 18).
The variant GFTLNNYGIS / VIYSDGRRTFYGDFVK / GRAAGTFDS [Ctrl] gave nd, nd, nd, nd, 1.39, nd (controls 0 of 18).
The variant GFTLNSYGIS / VIYSDGRRTFYGDDVK / GSAAGTFDS [Ctrl] gave 1.56, 1.51, 1.41, 1.27, 2.69, 1.50 (mean 1.66; controls 0 of 18).
The variant GFTLNSYGIS / VIYSDGRRTFYGDSVK / GRAPGTFDT [Ctrl] gave nd, nd, nd, nd, nd, nd (controls 0 of 18).
The variant GFTVDLYGIS / VIYSDGERTFYDDSVR / SRAAGRFDH [Ctrl] gave nd, nd, nd, nd, nd, nd (controls 2 of 18).
The variant GFTLNSYGIS / VIYSDGRRTFYGDDVK / GKAAGTFDS [Ctrl] gave 2.37, 2.63, 1.26, 1.10, 1.64, 1.56 (mean 1.76; controls 1 of 18).
The variant GHTLNSYGIS / VIYSDGRRTFYGDSVR / GKAAGTFDS [Ctrl] gave 0.86, 0.39, 1.77, 0.88, 0.86, 1.31 (mean 1.01; controls 0 of 18).
The variant GFNLNSYGIS / VIYSDGYRTFYGDSVK / GRAAGTSDS [Ctrl] gave nd, nd, nd, nd, nd, nd (controls 0 of 18).
The variant GFTLNSYGIS / VIYSDGRRTFYGDSVK / GKAAGTFDL [Ctrl] gave nd, 2.36, 3.21, 1.37, 2.47, 2.33 (mean 2.35; controls 1 of 18).
The variant GFTLNSYGIS / VIYSDGRRTFYGDSVK / GRIIGTFDS [Ctrl] gave nd, nd, nd, nd, nd, nd (controls 0 of 18).
The variant GFTLNSYGIS / VIYSDGRRTFYGDSVK / NMAAGTFDS [Ctrl] gave nd, nd, nd, nd, nd, nd (controls 0 of 18).
The variant GFTLNSYGIS / VIYSDGRRTFYSDSVK / GFAAGGFDS [Ctrl] gave nd, nd, nd, nd, nd, nd (controls 1 of 18).
The variant GFTLNSYGIS / VIYSDGRRTSYADSVK / GRAAGTFDS [Ctrl] gave 1.02, 1.14, 1.31, 0.82, 1.12, 1.07 (mean 1.08; controls 1 of 18).
The variant GFTLNSYGIS / VIYSDGHRTFYGDSVK / GRAEGTADS [Ctrl] gave nd, nd, nd, nd, nd, nd (controls 0 of 18).
The variant GFTLNSYGIS / VIYSDGERTFYGDSVK / GRVAWTFDS [Ctrl] gave nd, nd, nd, nd, nd, nd (controls 0 of 18).
The variant GFTINMYGIS / VIYSDGRRTFYGDSVK / GRGAGYFSS [Ctrl] gave nd, nd, nd, nd, nd, nd (controls 0 of 18).
The variant GFTLNSYGIS / VIYSDGRRTAYNDSVK / GRAAGTFDS [Ctrl] gave nd, nd, 2.22, nd, 3.46, 1.96 (mean 2.55; controls 0 of 18).
The variant GFTLNSYGIS / VIYSDGRRTFYGDSVK / GEMAGVFDK [Ctrl] gave nd, nd, nd, nd, nd, nd (controls 0 of 18).
The variant GETLNDYGIS / VIYSDGRRTFMGDSVK / GRAAGCFDS [Ctrl] gave nd, nd, nd, nd, nd, nd (controls 1 of 18).
The variant GFTLNSYGIS / VIYSDGRRTFYGDSVK / GRAAGTFES [Ctrl] gave nd, nd, nd, nd, nd, nd (controls 0 of 18).
The variant GFTLNSYGIS / VIYSDGRRTFYGDSVK / GRQAGTYDS [Ctrl] gave nd, nd, nd, nd, nd, nd (controls 0 of 18).
The variant GFKLNSYGIS / VIYSDGRRTAYGDSVK / GRAPGTMES [Ctrl] gave nd, nd, nd, nd, nd, nd (controls 0 of 18).
The variant GFTLNSYGIS / VIYSDGRRTFYEDSVR / TRAAHTMDS [Ctrl] gave nd, nd, nd, nd, nd, nd (controls 0 of 18).
The variant GFTLNSYGIS / VIYSDGRRTYYGDSVK / GRAAGTFGS [Ctrl] gave nd, nd, 3.05, nd, nd, nd (controls 0 of 18).
The variant GFTLNSYGIS / VIYSDGRRTFYSDKVK / GRAAGTFHS [Ctrl] gave nd, nd, 1.83, nd, nd, nd (controls 0 of 18).
The variant GFTLQSYGIS / VIYSDGRRTFYGDSVK / GRAAGTFNI [Ctrl] gave nd, nd, nd, nd, nd, nd (controls 0 of 18).
The variant GFALNSYGIS / VIYSDGRRTFYKDSVK / GRAAGTFDS [Ctrl] gave nd, nd, nd, nd, nd, nd (controls 0 of 18).
The variant GFDLTQYGIS / VIYSDGRRTFYGDSVK / GRAAGTFDD [Ctrl] gave 0.73, 0.72, 0.32, 1.89, 0.78, 1.12 (mean 0.93; controls 0 of 18).
The variant GITLNSYGIS / VIYSDGRRTSYGDSVK / GRAAGTFDH [Ctrl] gave nd, 2.44, 0.49, 0.45, 0.22, nd (mean 0.90; controls 0 of 18).
The variant QFTLNSYGIS / VIYSDGRRCFYGDEVK / GRAAGTFDS [Ctrl] gave nd, nd, nd, nd, nd, nd (controls 1 of 18).
The variant GFTLNSYGIS / VIYSDGRRTFYADSVK / GDAAGTFDS [Ctrl] gave nd, nd, nd, nd, nd, nd (controls 0 of 18).
The variant GFTLNEYGIS / VIYSDGRRTFYGDSYK / GRAAATPDS [Ctrl] gave nd, nd, nd, nd, nd, nd (controls 0 of 18).
The variant GTTLNLYGIS / VIYSDGRRTFYGDSVK / LQGAGTFDS [Ctrl] gave nd, nd, nd, nd, nd, nd (controls 0 of 18).
The variant GNTLNSYGIS / VIYSDGRRTAYGDSVK / GRAADTFDS [Ctrl] gave -0.24, -0.38, 0.04, -0.49, -0.38, 0.18 (mean -0.21; controls 0 of 18).
The variant GFTLNSYGIS / VIYADGRRTFYGDSVK / GRAAGTFPH [Ctrl] gave nd, nd, nd, nd, nd, nd (controls 0 of 18).
The variant GFTLNSYGIS / VIYSDGRRTFYGDSVK / GRARGTFDW [Ctrl] gave nd, nd, nd, nd, nd, nd (controls 0 of 18).
The variant GFTLNSYGIS / VIYSDGMRTFYTDSVK / GAAATTFDS [Ctrl] gave nd, nd, nd, nd, nd, 3.22 (controls 0 of 18).
The variant GFVLNQYGIS / VIYSDGRRTFYGDSVK / HRDAGTFDS [Ctrl] gave nd, nd, nd, nd, nd, nd (controls 0 of 18).
The variant GFTLESYGIS / VIYSDGRRTFYGDSVK / GRTAGTFDS [Ctrl+GPLM_Gen] gave 1.47, 0.49, nd, 0.79, 0.16, 0.63; 2.38, 0.55, 1.95, 0.87, 0.82, 0.79 (mean 0.99; controls 0 of 36).
The variant GHTLNSYGIS / VIYSDGLRTFYGDSVK / GRATGTFDS [Ctrl] gave nd, nd, nd, nd, nd, nd (controls 0 of 18).
The variant GFTLNSYGIS / VIYSDGRRTFYGDSVK / ELHAGTFDS [Ctrl] gave nd, nd, nd, nd, nd, nd (controls 0 of 18).
The variant GNTLNSYGIS / VITSDGRRTFYGDSVK / GRAVGTFDL [Ctrl] gave nd, nd, nd, nd, nd, 3.19 (controls 0 of 18).
The variant GFWLNSYGIS / VIYSDGVRTFYGDSVK / GRAALTFDV [Ctrl] gave nd, nd, nd, nd, nd, nd (controls 0 of 18).
The variant QFDLNSYGIS / VIYSDGRRTFYGDSVK / GWDAGTFDS [Ctrl] gave nd, nd, nd, nd, nd, nd (controls 0 of 18).
The variant GFQLNSYGIS / VIYADGQRTFYGDSVK / GRAAGTFDS [Ctrl] gave 0.86, 0.21, 0.07, 0.08, 0.39, 0.16 (mean 0.29; controls 1 of 18).
The variant GFQLNEYGIQ / VIYSDGRRTFYGDSVR / GRAAGTGDL [Ctrl] gave nd, nd, nd, nd, nd, nd (controls 0 of 18).

Of ten entries with the parent sequence, four were seen in most replicates (averages 0.34 to 2.37), three in one and three in none, so single entries are noisy. Values of this round are not directly comparable with the first-round values of the same sequences. Empty control strains, which show no peptide, gave a signal in 1% of pairings with all heavy chain designs; the median was 2.08 and 95% of these signals were weaker than 0.84. No background was subtracted. For each scFv, signals with the empty controls are counted beside the result. A sequence that the file lists under several names has all its replicates listed entry by entry, parted by semicolons.